Tested on: mice
Conditions: two highest doses (153 and 268 mg/kg ip), 48 hours

Compound: O=C(O)c1ccc(-c2c3nc(c(-c4ccc(C(=O)O)cc4)c4ccc([n-]4)c(-c4ccc(C(=O)O)cc4)c4nc(c(-c5ccc(C(=O)O)cc5)c5ccc2[n-]5)C=C4)C=C3)cc1.[Mn+3] [MnTBAP, manganese (III) tetrakis (4-benzoic acid) porphyrin]
- lethality: lethal

From patent US8765729B2, “Cancer therapy” (Aeolus Sciences, Inc., priority 2001, dated 2014)
